Assay: physchem

Ic1ccccc1 [IODOBENZENE]
logP: 3.27

Source: ChEMBL document CHEMBL1795329
